The text below walks through data of PubChem BioAssay AID2174 (The Scripps Research Institute Molecular Screening Center, 2009).

By UniProt entry, the sequences of proteins in these tests, tags left out.
UniProt O75608, whole entry: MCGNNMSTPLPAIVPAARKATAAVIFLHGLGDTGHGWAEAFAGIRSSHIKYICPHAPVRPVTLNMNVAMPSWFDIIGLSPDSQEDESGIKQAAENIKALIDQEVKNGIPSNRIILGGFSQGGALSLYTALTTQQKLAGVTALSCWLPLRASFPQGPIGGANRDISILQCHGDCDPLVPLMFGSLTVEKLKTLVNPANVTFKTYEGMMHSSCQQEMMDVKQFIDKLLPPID

The structures appear in SMILES notation. Only a part is listed here, and it is no random draw. The source made the active and inactive calls.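 How the source made its calls: active means inhibition above the mean of all tested compounds plus 3 SD, set per campaign (cut at about 14% in these data); inactive means the rest.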

As usually defined, the inhibition is the change of the read-out against control, counted positive when it falls.

The experiment concerns the target Acyl-protein thioesterase 1 (Homo sapiens) (UniProt O75608). As to the kind of experiment: LYPLA1 inhibitors, primary screen, counter-screen for PME1 inhibitor project, biochemical, fluorescence polarization, FP-Rh probe ABPP (AID 2174).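 Further: inhibitors block serine hydrolase probe labeling of LYPLA1 so polarization falls; 0% = enzyme with DMSO and 100% = wells lacking LYPLA1.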 The following applies: recombinant LYPLA1, FP-Rh probe fluorescence polarization; at 5.9 µM; stronger effect = higher value. For orientation: The purpose of a counterscreen is to sort out artefacts and off-target activity.
`CCC(CO)(C(=O)OC1CN2CCC1CC2)c1ccccc1` (stereo unspecified): the inhibition was inactive: 0.88%.

As for `COc1cccc(C(=O)N(c2cc(C)cc(C)c2)C2CCN(C(=O)OC(C)(C)C)CC2)c1`, the inhibition was inactive: 0.89%.

`COc1cc(OC)cc(C(=O)NCC2(N3CCOCC3)CCCCC2)c1`: the inhibition is inactive: 3.22%.

Turning to `CCCOc1ccc(C)cc1CN(CCCl)CCCl`, the inhibition was inactive: 3.94%.

Take `CN1CCC(Nc2ccc(Cl)cc2)CC1`: the inhibition is inactive: -3.68%.

As for `CCOc1ncccc1C(=O)NCC1(N2CCOCC2)CCCCC1`, the inhibition was inactive: -0.49%.

Regarding `CN1CCC(Nc2ccc(F)c(Cl)c2)CC1`, the inhibition was inactive: -2.9%.

Take `CCCOc1ccc(C(=O)NCC2(N(C)C)CCCCC2)cc1`: the inhibition was inactive: -1.63%.

In the case of `CC(C)(C)OC(=O)N1CCC(Nc2ccccc2)CC1`, the inhibition was inactive: 0.19%.

In the case of `O=C(O)C1(Nc2ccccc2)CCN(Cc2ccccc2)CC1`, the inhibition is inactive: -3.64%.

Consider `CCN1CCC(Nc2cccc(F)c2)CC1`, for which the inhibition is inactive: -0.1%.

Consider `O=C(NCC1(N2CCCCC2)CCCCC1)c1ccco1`, for which the inhibition was inactive: 3.74%.

Regarding `CN(C)c1ccc(C(=O)NCC2(N3CCCCC3)CCCCC2)cc1`, the inhibition is inactive: 2.17%.

As to `COc1cc(OC)cc(C(=O)NCC2(N3CCCCC3)CCCCC2)c1`, the inhibition is inactive: 0.23%.

Take `Cc1ccc(C(=O)NCC2(N3CCCCC3)CCCCC2)o1`: the inhibition is inactive: 5.5%.

`Fc1ccccc1NC1CCN(Cc2ccccc2)CC1`: the inhibition is inactive: -2.17%.

Take `c1ccc(CN2CCC(Nc3ccccc3)CC2)cc1`: the inhibition is inactive: 2.39%.

Regarding `CCCN1CCC(Nc2cc(OC)cc(OC)c2)CC1`, the inhibition is inactive: 0.37%.

On to `CN(C)C1(CNC(=O)c2cccc(C#N)c2)CCCCC1`, for which the inhibition is inactive: 3.51%.

With `CC(C)(C)OC(=O)N1CCC(N(C(=O)c2ccccc2)c2ccc(Cl)cc2)CC1`, the inhibition is inactive: -1.52%.

Regarding `N#Cc1ccc(C(=O)NCC2(N3CCCCC3)CCCCC2)cc1`, the inhibition was inactive: -3.35%.

Turning to `N/C(=N\O)c1c(N)no[n+]1[O-]`, the inhibition was inactive: -3.23%.

In the case of `CCOC(=O)N1CCC(Nc2ccc(C)cc2)CC1`, the inhibition was inactive: -0.05%.

For the compound `O=C(OC1CN2CCC1CC2)C1c2ccccc2C=Cc2ccccc21` (stereo unspecified), the inhibition was inactive: 0.95%.

With `CCc1cc(C(=O)NCC2(N3CCCCC3)CCCCC2)sc1C`, the inhibition was inactive: -0.32%.

Take `O=C(NCC1(N2CCOCC2)CCCCC1)c1cc(Br)ccc1Cl`: the inhibition was inactive: 2.3%.

`COc1ccc(C(=O)NCC2(N3CCOCC3)CCCCC2)cc1OC`: the inhibition is inactive: -0.48%.

As to `O=C(NCC1(N2CCCCC2)CCCCC1)c1cncc(Br)c1`, the inhibition is inactive: 2.12%.

For the compound `CN1CCC(Nc2cccc(F)c2)CC1`, the inhibition was inactive: -2.2%.

On to `COc1ccc(CN(CCCl)CCCl)cc1Cl`, for which the inhibition is inactive: -3.09%.

Consider `CN(C)c1cccc(C(=O)NCC2(N3CCCCC3)CCCCC2)c1`, for which the inhibition is inactive: 1.91%.

Consider `CC(C)c1ccc(NC2CCN(C(=O)OC(C)(C)C)CC2)cc1`, for which the inhibition is inactive: 0.21%.

On to `COc1cc(OC)c(C(=O)NCC2(N(C)C)CCCCC2)cc1OC`, for which the inhibition was inactive: -1.48%.

Turning to `O=C(NCC1(N2CCCCC2)CCCCC1)c1cccc(C(F)(F)F)c1`, the inhibition is inactive: 1.41%.

With `COc1ccc(NC2CCN(C(=O)OC(C)(C)C)CC2)cc1`, the inhibition is inactive: -1.2%.

Take `CN1CCN(CCOC(=O)C(O)(c2ccccc2)c2ccccc2)CC1`: the inhibition is inactive: -1.23%.

For the compound `O=C(NCC1(N2CCOCC2)CCCCC1)c1cc(=O)[nH]c2ccccc12`, the inhibition was inactive: -3.23%.

For `COc1cc(C(=O)NCC2(N3CCCCC3)CCCCC2)ccc1OC(F)F`, the inhibition is inactive: -0.22%.

Consider `O=C(NCC1(N2CCCCC2)CCCCC1)c1ccc(OC(F)F)cc1`, for which the inhibition is inactive: -5.77%.

For the compound `O=C(NCC1(N2CCCCC2)CCCCC1)c1cccc([N+](=O)[O-])c1`, the inhibition is inactive: -5.96%.

As to `CCN1CCC(Nc2ccc(Cl)cc2)CC1`, the inhibition was inactive: 0.4%.

Take `N#CC1(Nc2ccccc2)CCN(CCc2ccccc2)CC1`: the inhibition was inactive: 0.17%.

Regarding `CCOC(=O)N1CCC(Nc2cccc(C)c2)CC1`, the inhibition is inactive: 1.78%.

As for `Cc1ccc(OCC(C)C)c(CN(CCCl)CCCl)c1`, the inhibition is inactive: 0.21%.

`CCOc1ccc(C)cc1CN(CCCl)CCCl`: the inhibition was inactive: 2.73%.

As to `O=C(NCC1(N2CCCCC2)CCCCC1)c1ccc(F)cc1`, the inhibition was inactive: 0.53%.

Take `COc1ccc(NC2CCN(CCc3ccccc3)CC2)c(OC)c1`: the inhibition was inactive: 2.05%.

Take `O=C(NCC1(N2CCOCC2)CCCCC1)c1cc2ccccc2o1`: the inhibition is inactive: 1.85%.

For the compound `O=C(NCC1(N2CCCCC2)CCCCC1)c1ccc(Cl)nc1`, the inhibition is inactive: 1.35%.

In the case of `Cc1cc(C)cc(N(C(=O)c2ccccc2)C2CCN(C(=O)OC(C)(C)C)CC2)c1`, the inhibition was inactive: 3.97%.

Regarding `CCOC(=O)N1CCC(Nc2ccc(OC)cc2)CC1`, the inhibition is inactive: 0.64%.

Consider `O=C(OC1CN2CCC1CC2)C1c2ccccc2Oc2ccccc21` (stereo unspecified), for which the inhibition is inactive: -0.12%.

For `O=C(NCC1(N2CCCCC2)CCCCC1)c1ccc(Cl)s1`, the inhibition was inactive: 0.38%.

As to `N#CC1(Nc2ccccc2)CCN(Cc2ccccc2)CC1`, the inhibition is inactive: 1.65%.

For `COc1ccc(Cl)cc1C(=O)NCC1(N2CCOCC2)CCCCC1`, the inhibition is inactive: 2.92%.

Regarding `O=C(NCC1(N2CCCCC2)CCCCC1)c1ccc(=O)[nH]c1`, the inhibition is inactive: 3.31%.

As for `O=C(NCC1(N2CCCCC2)CCCCC1)c1cccs1`, the inhibition was inactive: -1.48%.

For the compound `COc1ccc(C(=O)NCC2(N3CCCCC3)CCCCC2)cc1`, the inhibition is inactive: 6.86%.

Take `COc1ccc(C(=O)NCC2(N3CCCCC3)CCCCC2)c(OC)c1OC`: the inhibition was inactive: -5.5%.

Take `CC(C)(C)OC(=O)N1CCC(N(C(=O)c2ccccc2)c2ccc(F)cc2)CC1`: the inhibition is inactive: -2.08%.

In the case of `CSc1ccccc1C(=O)NCC1(N2CCCCC2)CCCCC1`, the inhibition is inactive: -0.09%.
